Reference: patent US20160367705A1, “NANOPARTICLES COMPRISED OF SHELLS ASSOCIATED WITH CHARGED ENTITIES AND FORMED FROM MONOMERS AND METHODS OF MAKING AND USING NANOPARTICLES” (New York University, priority 2015, published 2016)

Assay: Solubility / dispersibility in solvents

Substance: Acetamido Cetyl Dimethyl Ammonium Glucuronate [CDA-gluc]
- dispersibility in water and non-aqueous media (water, MeOH, DMSO, CHCl3): easily dispersed

Substance: cetyltrimethylammonium glucuronate [CTA-gluc, reference compound]
- solubility in chloroform (chloroform): poorly soluble
